{"source": "patent US20190134148A1", "about": "“COMBINATION THERAPY” (BIG DNA LTD, priority 2016, published 2019)", "key": {"[1]": {"tested_on": "NCI H-929 human multiple myeloma cells", "experiment": "NCI-H929 sub-cutaneous xenograft mouse tumor model, 'high' bortezomib dose (Example 7)", "assay_type": "in vivo, SCID mouse", "conditions": "sum of PR+CR, N = 10, bortezomib 1 mg/kg IV biweekly, cilengitide 45 mg/kg IP QD", "experimental": "A scoping study was conducted to compare the efficacy of bortezomib with a bortezomib/cilengitide combination regime in vivo in a sub cutaneous SCID mouse xenograft model using NCI H-929 human multiple myeloma cells. The dose of bortezomib tested was 1 mg/kg. H929 cells were implanted and allowed to grow until mean tumour volumes of 101-103 mm^3 were reached on Day 1, whereupon treatment began. This was then continued until Day 21.\nPartial response (PR) is defined as the first measurement of the tumor volume being 50% or less of its Day 1 volume for three consecutive measurements during the course of the study, and equal to or greater than 13.5 mm^3 for one or more of these three measurements. In a complete response (CR), the tumor volume was less than 13.5 mm^3 for three consecutive measurements during the course of the study. Total response rate (RR) is the sum of PR+CR. Treatment began on day 1 and was stopped on Day 21. Bortezomib was given as Velcade (1 mg/kg IV biweekly) with cilengitide (45 mg/kg IP, QD)."}, "[2]": {"tested_on": "T47D breast cancer cell line", "experiment": "Sulforhodamine B viability assay and isobologram / combination index in T47D cells", "assay_type": "cell-based", "conditions": "Homo sapiens, read-out: Bortezomib (M), concentration resulting in 50% reduction in viability as single agent (IC50)", "experimental": "For assessment of combined BTZ and cilengitide toxicity, T47D cells were seeded at a density of 7500 cells/cm^2 in 96-well cell culture plates and incubated for 24 hours. Cilengitide was diluted to 20 μM in complete DMEM, then 3 serial tenfold dilutions of this were performed in complete DMEM (2 μM, 200 nM and 20 nM). Complete DMEM containing no cilengitide was provided for negative controls.\nThese dilutions (or DMSO for wells containing no BTZ) were added to aliquots of complete DMEM containing 0-20 μM cilengitide for a 1/150 dilution. Aliquots (0.1 mL) of each mixture were added to wells already containing 0.1 mL medium (in duplicate), resulting in a matrix of cilengitide (10 nM-10 μM) and/or BTZ (1 nM-10 μM) or neither agent (diluent only).\nOD570nm readings were divided by those resulting from negative control (diluent only) wells and expressed as a percentage. Three independent replicates of this experiment were carried out.\nThe isoboles were obtained similarly by extrapolation of points representing 50% reduction in viability from line graphs of % viability versus concentration of one agent at variable concentration with the other agent supplied at a fixed concentration. […]"}}, "data": [{"smiles": "CC(C)C[C@H](NC(=O)[C@H](Cc1ccccc1)NC(=O)c1cnccn1)B(O)O", "note": "[Bortezomib]", "values": [{"measurement": "Total RR %", "setting": "[1]; Day 12", "value": 80, "unit": "%"}, {"measurement": "Total RR %", "setting": "[1]; Day 15", "value": 80, "unit": "%"}, {"measurement": "IC50", "setting": "[2]", "value": "8.9e-08", "unit": "M"}]}]}
